This is an account of results in US10675284B2, “Treatment of B-cell malignancies by a combination JAK and PI3K inhibitors” (Incyte Corporation, priority 2014, dated 2020).

The chains behind the UniProt entries cited, without tags or fusion partners. Where a name states a change or a piece, a line headed by the entry shows the natural chain unless it says otherwise.
UniProt P23458: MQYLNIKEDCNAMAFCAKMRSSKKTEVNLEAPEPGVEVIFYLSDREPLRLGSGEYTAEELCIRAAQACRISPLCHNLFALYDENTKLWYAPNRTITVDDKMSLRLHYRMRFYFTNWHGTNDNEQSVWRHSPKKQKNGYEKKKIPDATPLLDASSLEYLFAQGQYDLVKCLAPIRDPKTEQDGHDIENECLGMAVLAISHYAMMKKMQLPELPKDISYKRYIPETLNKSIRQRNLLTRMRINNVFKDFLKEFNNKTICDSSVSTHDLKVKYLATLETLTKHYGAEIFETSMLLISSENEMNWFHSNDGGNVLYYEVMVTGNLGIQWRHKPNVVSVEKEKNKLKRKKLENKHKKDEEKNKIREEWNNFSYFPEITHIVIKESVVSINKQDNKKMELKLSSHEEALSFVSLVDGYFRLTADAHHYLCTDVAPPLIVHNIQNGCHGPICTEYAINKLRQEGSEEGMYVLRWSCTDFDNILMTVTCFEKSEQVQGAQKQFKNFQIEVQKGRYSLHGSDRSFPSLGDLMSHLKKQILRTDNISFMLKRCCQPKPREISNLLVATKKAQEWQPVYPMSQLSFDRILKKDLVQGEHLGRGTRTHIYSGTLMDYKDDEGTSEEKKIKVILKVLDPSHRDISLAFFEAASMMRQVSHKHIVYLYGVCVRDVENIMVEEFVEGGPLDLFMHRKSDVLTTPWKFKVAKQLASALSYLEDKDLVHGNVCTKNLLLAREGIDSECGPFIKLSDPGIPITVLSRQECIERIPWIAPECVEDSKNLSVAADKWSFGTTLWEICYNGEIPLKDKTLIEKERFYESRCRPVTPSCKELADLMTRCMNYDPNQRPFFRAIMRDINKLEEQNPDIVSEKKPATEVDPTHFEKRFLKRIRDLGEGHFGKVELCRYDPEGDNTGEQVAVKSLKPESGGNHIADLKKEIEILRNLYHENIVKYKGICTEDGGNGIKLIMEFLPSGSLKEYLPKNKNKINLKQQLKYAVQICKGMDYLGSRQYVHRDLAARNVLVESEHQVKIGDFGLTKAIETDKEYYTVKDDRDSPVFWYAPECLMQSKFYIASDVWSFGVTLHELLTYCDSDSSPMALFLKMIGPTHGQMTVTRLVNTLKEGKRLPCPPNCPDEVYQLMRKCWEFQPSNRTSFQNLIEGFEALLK
UniProt O00329: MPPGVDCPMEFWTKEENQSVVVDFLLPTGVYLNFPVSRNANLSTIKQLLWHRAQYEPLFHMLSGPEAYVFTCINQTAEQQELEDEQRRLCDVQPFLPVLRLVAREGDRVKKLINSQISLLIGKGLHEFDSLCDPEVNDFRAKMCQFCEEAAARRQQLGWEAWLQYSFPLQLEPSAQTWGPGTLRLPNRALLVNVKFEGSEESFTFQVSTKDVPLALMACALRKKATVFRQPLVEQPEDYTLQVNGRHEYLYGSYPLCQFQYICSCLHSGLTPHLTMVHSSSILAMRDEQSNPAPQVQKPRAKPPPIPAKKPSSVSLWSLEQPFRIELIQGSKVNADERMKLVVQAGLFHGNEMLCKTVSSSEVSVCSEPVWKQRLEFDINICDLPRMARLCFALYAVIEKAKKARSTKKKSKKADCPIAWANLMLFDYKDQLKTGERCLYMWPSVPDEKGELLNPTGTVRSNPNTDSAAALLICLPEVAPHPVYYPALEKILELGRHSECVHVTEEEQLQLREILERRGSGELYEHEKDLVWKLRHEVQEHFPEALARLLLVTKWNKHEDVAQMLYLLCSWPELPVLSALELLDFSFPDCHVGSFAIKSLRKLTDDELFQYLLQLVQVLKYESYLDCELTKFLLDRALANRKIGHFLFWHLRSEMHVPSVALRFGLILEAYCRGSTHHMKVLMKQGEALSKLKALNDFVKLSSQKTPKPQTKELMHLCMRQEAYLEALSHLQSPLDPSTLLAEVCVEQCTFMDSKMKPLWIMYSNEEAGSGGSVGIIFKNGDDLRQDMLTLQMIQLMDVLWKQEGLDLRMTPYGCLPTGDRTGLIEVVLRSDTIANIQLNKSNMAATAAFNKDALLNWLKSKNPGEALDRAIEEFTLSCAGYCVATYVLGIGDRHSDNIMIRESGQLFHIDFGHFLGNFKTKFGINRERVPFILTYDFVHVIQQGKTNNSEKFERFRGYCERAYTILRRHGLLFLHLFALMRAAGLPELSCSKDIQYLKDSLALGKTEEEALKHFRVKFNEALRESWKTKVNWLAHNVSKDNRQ

Experiment [1] has as its target human JAK1 (a.a. 837-1142) (Homo sapiens, UniProt P23458). The experiment can be described thus: In vitro JAK kinase assay (HTRF), JAK1. Format: biochemical. Conditions: 1 mM ATP. On the technique in general: In TR-FRET formats the signal depends on donor and acceptor labels being close together.
Another experiment addresses PI3Kδ (p110δ/p85α) (Homo sapiens (Human), UniProt O00329). The experiment can be described thus: PI3Kδ scintillation proximity assay. Format: biochemical. Conditions: 20 μM ATP. (In general: In a scintillation proximity assay essentially only radioactivity close to the scintillant gives light.)
A further experiment relates to Pfeiffer cells. Kind of experiment: Cell proliferation assay in Pfeiffer cells. The format is cell-based, human. Conditions: +IL-10 vs -IL-10.

As a reminder, the IC50 is the concentration needed to halve the response being measured. As for `CN(C)Cc1cc(F)cc(OC2CCN(CC(CC#N)n3cc(-c4ncnc5[nH]ccc45)cn3)CC2)c1` (single isomer, unassigned) [Compound 14, 4-(4-{3-[(dimethylamino)methyl]-5-fluorophenoxy}piperidin-1-yl)-3-[4-(7H-pyrrolo[2,3-d]pyrimidin-4-yl)-1H-pyrazol-1-yl]butanenitrile], the concentration for half-maximal inhibition (IC50) in experiment [1] is less than 10 nM.
The molecule `Cc1csc2nc(C(C)Nc3ncnc4[nH]cnc34)c(-c3cccc(F)c3)c(=O)n12` (stereo not shown) [Compound 27, 7-(1-(9H-purin-6-ylamino)ethyl)-6-(3-fluorophenyl)-3-methyl-5H-thiazolo[3,2-a]pyrimidin-5-one] came in with a concentration for half-maximal inhibition (IC50) at PI3Kδ (p110δ/p85α) of less than 50 nM.
On to `Cc1csc2nc([C@H](C)Nc3ncnc4[nH]cnc34)c(-c3cccc(F)c3)c(=O)n12` [Compound 28, (S)-7-(1-(9H-purin-6-ylamino)ethyl)-6-(3-fluorophenyl)-3-methyl-5H-thiazolo[3,2-a]pyrimidin-5-one], for which the half-maximal inhibitory concentration (IC50) at PI3Kδ (p110δ/p85α) is less than 50 nM. Further, the “shift of potency by presence of IL-10” value with Pfeiffer cells is roughly 10 fold.
